According to patent EP1673349B1, “BENZIMIDAZOLE DERIVATIVES: PREPARATION AND PHARMACEUTICAL APPLICATIONS” (priority 2003, dated 2005):

Molecular target: HDAC8 enzyme
Assay: In vitro HDAC assay (BIOMOL fluorescent-based HDAC activity assay), HDAC8
Assay type: biochemical, human
Conditions: Table 3

Question: How did the IC50 turn out when `O=C(/C=C/c1ccc2c(c1)nc(CCc1ccccc1)n2CCc1ccccc1)NO` [Compound 26, N-Hydroxy-3-(1,2-Diphenethyl-1H-benzimidazol-5-yl]-acylamide] was run?
Answer: Its IC50 is 1 µM.
